This assay concerns the target Muscarinic acetylcholine receptor M1 (Homo sapiens, UniProt P11229). Put plainly: Antagonist activity at human recombinant muscarinic M1 receptor expressed in CHO cells assessed as inhibition of acetylcholine-induced intracellular Ca2+ mobilization by FLIPR assay. It counts as functional, cell-based. The note with it: read-out: pA2 (converted).

Chains of the proteins cited; added tags and fusions are not shown. Lines headed by an entry give the natural chain unless they say otherwise; changes in a name come on top.
UniProt P11229: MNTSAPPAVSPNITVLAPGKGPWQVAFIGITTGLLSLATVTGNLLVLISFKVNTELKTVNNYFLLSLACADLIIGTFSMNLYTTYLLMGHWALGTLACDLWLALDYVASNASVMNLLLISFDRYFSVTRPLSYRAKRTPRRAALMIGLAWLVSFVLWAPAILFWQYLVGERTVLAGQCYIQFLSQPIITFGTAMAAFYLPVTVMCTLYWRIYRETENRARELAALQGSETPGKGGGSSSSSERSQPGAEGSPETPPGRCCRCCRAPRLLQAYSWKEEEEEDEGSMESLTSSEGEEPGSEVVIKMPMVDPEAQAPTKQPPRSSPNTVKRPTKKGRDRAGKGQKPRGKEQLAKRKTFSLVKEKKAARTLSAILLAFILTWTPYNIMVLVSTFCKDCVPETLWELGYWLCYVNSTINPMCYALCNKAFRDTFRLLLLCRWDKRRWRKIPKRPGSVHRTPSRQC

The structures appear in SMILES notation.

On to `CC(C)OC(=O)c1ccc(NC(=O)N[C@@H](Cc2ccc(O)cc2)C(=O)N[C@H]2CCC[N+](C)(Cc3cccc(O)c3)C2)cc1.[I-]` (stereo partly specified), for which the Kb was 15.8 nM.

The values above are taken from ChEMBL document CHEMBL1152232, “Muscarinic acetylcholine receptor antagonists: SAR and optimization of tyrosine ureas” (Bioorg Med Chem Lett, 2008).
